Reference: US20200164114A1

How the values were obtained:
[1] = molecular target: integrin α5β1 on human erythroleukemia K562 cells (human) (UniProt P08648); assay: cell adhesion inhibition: K562 cells to immobilized fibronectin
[2] = molecular target: integrin αIIbβ3 on CHO cells (CHO-αIIbβ3) (UniProt P08514); assay: cell adhesion inhibition: CHO-αIIbβ3 cells to immobilized fibrinogen

Substance: rhodostomin
- IC50 [1]: 0.257 µM
- IC50 [2]: 0.0522 µM
